The source of these data is US9611277B2 (Janssen Pharmaceutica NV, priority 2013, dated 2017).

Chains of the proteins cited; added tags and fusions are not shown.
UniProt O43614, whole entry: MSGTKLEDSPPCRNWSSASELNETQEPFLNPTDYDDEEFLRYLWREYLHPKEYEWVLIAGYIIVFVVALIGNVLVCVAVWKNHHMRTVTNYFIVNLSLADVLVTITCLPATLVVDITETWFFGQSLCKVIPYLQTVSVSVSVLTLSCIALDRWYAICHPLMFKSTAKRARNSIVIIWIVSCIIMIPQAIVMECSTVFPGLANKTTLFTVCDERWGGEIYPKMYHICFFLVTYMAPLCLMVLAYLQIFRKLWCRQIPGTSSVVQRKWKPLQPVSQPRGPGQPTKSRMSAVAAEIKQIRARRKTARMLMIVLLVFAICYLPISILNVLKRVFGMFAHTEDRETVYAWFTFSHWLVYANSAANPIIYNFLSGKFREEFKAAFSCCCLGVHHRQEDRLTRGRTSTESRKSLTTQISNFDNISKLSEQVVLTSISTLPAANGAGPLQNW

One assay concerns the target rat orexin 1 receptor (Rattus norvegicus, UniProt P56718). In words: Rat orexin 1 receptor radioligand binding. To be noted: read-out: rOX1 Ki. Here is the method: (§1) Data are analyzed using pc-Sandy macro and graphed on Graphpad Prism 5. For analysis, each concentration point is averaged from triplicate values and the averaged values are plotted on Graphpad Prism. The IC50 was determined by applying the following equation (GraphPad Prism 5.0, SanDiego) for one site competition where X=log (concentration) and Y=specific binding. Top denotes the total [^3H]-(1-(5-(2-fluoro-phenyl)-2-methyl-thiazol-4-yl)-1-((S)-2-(5-phenyl-(1,3,4)oxadiazol-2-ylmethyl)-pyrrolidin-1-yl)-methanone) binding, bottom denotes the nonspecific [^3H]-(1-(5-(2-fluoro-phenyl)-2-methyl-thiazol-4-yl)-1-((S)-2-(5-phenyl-(1,3,4)oxadiazol-2-ylmethyl)-pyrrolidin-1-yl)-methanone) binding. Graphpad Prism calculates Ki value from IC50 and the pre-determined Kd values for [^3H]-(1-(5-(2-fluoro-phenyl)-2-methyl-thiazol-4-yl)-1-((S)-2-(5-phenyl-(1,3,4)oxadiazol-2-ylmethyl)-pyrrolidin-1-yl)-methanone) and [3H]-EMPA. The Ki for each compound is then uploaded into 3DX. Each run comprises individual compounds in triplicate. The data in Table 1 and Table 2 represent averages from between 2-20 runs
(§2) Rat and Human Orexin 1 Receptor Radioligand Binding Studies
(§3) After centrifugation (2K×G, 5 min at 4° C.), the supernatant was aspirated and the pellets frozen and stored at −80° C. […] Each cell pellet from a 15 cm plate was resuspended in 10 mL, stored on ice, and homogenized for 45 sec prior to addition to the reactions. […] The final concentration of DMSO in the reactions is equal to or less than 0.1%. Total and nonspecific binding was determined in the absence and presence of 10 μM almorexant. The total volume of each reaction is 200 μL (20 μL of diluted compounds, 80 μL of [^3H]-(1-(5-(2-fluoro-phenyl)-2-methyl-thiazol-4-yl)-1-((S)-2-(5-phenyl-(1,3,4)oxadiazol-2-ylmethyl)-pyrrolidin-1-yl)-methanone) diluted in PBS and 100 μL of the cell suspension). […] The plates were washed 3 times by aspirating 30 ml PBS through the plates. Plates were dried in 55° C. oven for 60 min, scintillation fluid was added, and the radioactivity was counted on a Topcount (Packard).

For a further assay, the target named is human orexin 2 receptor (Homo sapiens (Human), UniProt O43614). As to the kind of experiment: Human orexin 2 receptor radioligand binding. To be noted: read-out: hOX2 Ki. Here is the method:
as §1
Human Orexin 2 Receptor Radioligand Binding Studies
as §3, with “HEK293 stably expressing human orexin 2 receptor (Genebank accession number NM_001526) were grown to confluency in DMEM (Hyclone, cat # SH30022), 10% FBS, 1× Pen/Strep, 1× NaPyruvate, 10 mM HEPES, 600 ug/ml G418 media on 150 cm^2 tissue culture plates, washed with 5 mM EDTA in PBS (HyClone Dulbecco's Phosphate Buffered Saline 1× with Calcium and Magnesium, Cat # SH30264.01, hereafter referred to simply as PBS) and scraped into 50 ml tubes. After” for “After”, “sec just” for “sec”, “[^3H]-EMPA” for “[^3H]-(1-(5-(2-fluoro-phenyl)-2-methyl-thiazol-4-yl)-1-((S)-2-(5-phenyl-(1,3,4)oxadiazol-2-ylmethyl)-pyrrolidin-1-yl)-methanone)”

In a further assay the target is human orexin 1 receptor (Homo sapiens, UniProt O43613). In words: Human orexin 1 receptor radioligand binding. To be noted: read-out: hOX1 Ki. Here is the method: as §1, §2, §3
The mark [1] stands for this setting: rat orexin 1 receptor, averages of 2-20 runs.
Where [2] appears, read: human orexin 2 receptor, averages of 2-20 runs.
Where [3] appears, read: human orexin 1 receptor, averages of 2-20 runs.

Where two headings read alike, the source gives them in different places. Where only a bound is given, the exact number is not on record here.

One may read the Ki as a dissociation constant, usually derived from enzyme kinetics or from competition with a known ligand. For the compound `O=C(c1cc(F)ccc1-n1nccn1)N1CC2CC(Oc3ccc(C(F)(F)F)cn3)C1C2` (racemic) [Example 14, (R/S)-(5-fluoro-2-(2H-1,2,3-triazol-2-yl)phenyl)(6-((5-(trifluoromethyl)pyridin-2-yl)oxy)-2-azabicyclo[2.2.1]heptan-2-yl)methanone], on rat orexin 1 receptor (setting [1]), the inhibition constant (Ki) was found to be 17 nM.

In the case of `Cc1ccc(-n2nccn2)c(C(=O)N2C[C@@H]3CC[C@H]2[C@@H](Nc2cnc(C(F)(F)F)cn2)C3)n1` (racemic) [Example 253, (R/S)-(6-methyl-3-(2H-1,2,3-triazol-2-yl)pyridin-2-yl)(6-((5-(trifluoromethyl)pyrazin-2-yl)amino)-2-azabicyclo[2.2.2]octan-2-yl)methanone], the Ki on rat orexin 1 receptor (setting [1]) and at human orexin 2 receptor (setting [2]) was over 10000 nM throughout.

Take `Cc1ccc(-n2nccn2)c(C(=O)N2CC3CC(Oc4ccc(C(F)(F)F)cn4)C2C3)n1` [Example 25, (6-methyl-3-(2H-1,2,3-triazol-2-yl)pyridin-2-yl)((1S,4R,6R)-6-((5-(trifluoromethyl)pyridin-2-yl)oxy)-2-azabicyclo[2.2.1]heptan-2-yl)methanone]: at rat orexin 1 receptor (setting [1]), the Ki stood at 14 nM.

As for `O=C(c1cccc(F)c1-c1ncccn1)N1C[C@H]2C[C@@H](Oc3ccc(C(F)(F)F)cn3)[C@@H]1C2` [Example 27, (3-fluoro-2-(pyrimidin-2-yl)phenyl)((1S,4R,6R)-6-((5-(trifluoromethyl)pyridin-2-yl)oxy)-2-azabicyclo[2.2.1]heptan-2-yl)methanone], the inhibition constant Ki at human orexin 2 receptor (setting [2]) is 725 nM; on human orexin 1 receptor (setting [3]), 5 nM.

Regarding `O=C(c1ccccc1-n1nccn1)N1C[C@H]2C[C@@H](Oc3ccc(C(F)(F)F)cn3)[C@@H]1C2` [Example 36, (2-(2H-1,2,3-triazol-2-yl)phenyl)((1S,4R,6R)-6-((5-(trifluoromethyl)pyridin-2-yl)oxy)-2-azabicyclo[2.2.1]heptan-2-yl)methanone], at human orexin 2 receptor (setting [2]), the inhibition constant (Ki) was determined as 343 nM.

For the compound `O=C(c1cc(F)ccc1-n1nccn1)N1C[C@H]2C[C@@H](Oc3ccc(C(F)(F)F)cn3)[C@@H]1C2` [Example 43, (5-fluoro-2-(2H-1,2,3-triazol-2-yl)phenyl)((1S,4R,6R)-6-((5-(trifluoromethyl)pyridin-2-yl)oxy)-2-azabicyclo[2.2.1]heptan-2-yl)methanone], the Ki on human orexin 1 receptor (setting [3]) is 16 nM.

As for `O=C(c1cccc(F)c1-c1ncccn1)N1C[C@@H]2CC[C@H]1[C@H](Oc1ccc(C(F)(F)F)cn1)C2` [Example 73, (3-fluoro-2-(pyrimidin-2-yl)phenyl)((1S,4R,6R)-6-((5-(trifluoromethyl)pyridin-2-yl)oxy)-2-azabicyclo[2.2.2]octan-2-yl)methanone], the inhibition constant (Ki) was 8 nM at rat orexin 1 receptor and 575 nM on human orexin 2 receptor.

As to `O=C(c1ccc(F)cc1-c1ncccn1)N1C[C@@H]2CC[C@H]1[C@H](Oc1ccc(C(F)(F)F)cn1)C2` [Example 259, (4-fluoro-2-(pyrimidin-2-yl)phenyl)((1S,4R,6R)-6-((5-(trifluoromethyl)pyridin-2-yl)oxy)-2-azabicyclo[2.2.2]octan-2-yl)methanone], the inhibitory constant (Ki) at human orexin 2 receptor (setting [2]) was 865 nM.

Consider `O=C(c1ccccc1-c1ncc(F)cn1)N1C[C@@H]2CC[C@H]1[C@H](Oc1ccc(C(F)(F)F)cn1)C2` [Example 262, (2-(5-fluoropyrimidin-2-yl)phenyl)((1S,4R,6R)-6-((5-(trifluoromethyl)pyridin-2-yl)oxy)-2-azabicyclo[2.2.2]octan-2-yl)methanone], for which the inhibition constant (Ki) on human orexin 2 receptor (setting [2]) is 550 nM.

For the compound `O=C(c1cccc(F)c1-n1nccn1)N1C[C@@H]2CC[C@H]1[C@H](Nc1cnc(C(F)(F)F)cn1)C2` [Example 274, (3-fluoro-2-(2H-1,2,3-triazol-2-yl)phenyl)((1S,4R,6R)-6-((5-(trifluoromethyl)pyrazin-2-yl)amino)-2-azabicyclo[2.2.2]octan-2-yl)methanone], on human orexin 1 receptor, the inhibition constant Ki amounted to 8 nM.

`O=C(c1ccccc1-n1nccn1)N1C[C@@H]2CC[C@H]1[C@H](Nc1cnc(C(F)(F)F)cn1)C2` [Example 275, (2-(2H-1,2,3-triazol-2-yl)phenyl)((1S,4R,6R)-6-((5-(trifluoromethyl)pyrazin-2-yl)amino)-2-azabicyclo[2.2.2]octan-2-yl)methanone]: the inhibition constant (Ki) on human orexin 1 receptor came to 5 nM.

For `COc1cccc(-n2nccn2)c1C(=O)N1C[C@H]2C[C@@H](Oc3ccc(C(F)(F)F)cn3)[C@@H]1C2` [Example 289, (2-methoxy-6-(2H-1,2,3-triazol-2-yl)phenyl)((1S,4R,6R)-6-((5-(trifluoromethyl)pyridin-2-yl)oxy)-2-azabicyclo[2.2.1]heptan-2-yl)methanone], the inhibitory constant (Ki) stood at 14 nM at rat orexin 1 receptor (setting [1]) and 24 nM at human orexin 1 receptor (setting [3]).
